Values of other authors as cited in US20240401031A1, “Platform Using iPSC-Derived Cardiomyocytes Carrying Gene Variants as Models of Cardiac Disease and Drug-Response” (SRI INTERNATIONAL, priority 2021, published 2024).

Settings: source CredibleMeds

Ibogaine
Risk (Torsade de Pointes): (KR)
